Values of other authors in patent US20060258754A1, “Method of treating endothelial dysfunction, oxidative stress and related diseases” (priority 2004, published 2006).

Test system: DNA
Conditions: pro-oxidant potential; cited from earlier work

vitamin E
oxidative DNA damage: cause oxidative DNA damage
